# Values of other authors as cited in article PMC3974845 (International journal of peptide research and therapeutics, 2013).
# The chains behind the UniProt entries cited, without tags or fusion partners.
# UniProt P40763, whole entry, species assumed: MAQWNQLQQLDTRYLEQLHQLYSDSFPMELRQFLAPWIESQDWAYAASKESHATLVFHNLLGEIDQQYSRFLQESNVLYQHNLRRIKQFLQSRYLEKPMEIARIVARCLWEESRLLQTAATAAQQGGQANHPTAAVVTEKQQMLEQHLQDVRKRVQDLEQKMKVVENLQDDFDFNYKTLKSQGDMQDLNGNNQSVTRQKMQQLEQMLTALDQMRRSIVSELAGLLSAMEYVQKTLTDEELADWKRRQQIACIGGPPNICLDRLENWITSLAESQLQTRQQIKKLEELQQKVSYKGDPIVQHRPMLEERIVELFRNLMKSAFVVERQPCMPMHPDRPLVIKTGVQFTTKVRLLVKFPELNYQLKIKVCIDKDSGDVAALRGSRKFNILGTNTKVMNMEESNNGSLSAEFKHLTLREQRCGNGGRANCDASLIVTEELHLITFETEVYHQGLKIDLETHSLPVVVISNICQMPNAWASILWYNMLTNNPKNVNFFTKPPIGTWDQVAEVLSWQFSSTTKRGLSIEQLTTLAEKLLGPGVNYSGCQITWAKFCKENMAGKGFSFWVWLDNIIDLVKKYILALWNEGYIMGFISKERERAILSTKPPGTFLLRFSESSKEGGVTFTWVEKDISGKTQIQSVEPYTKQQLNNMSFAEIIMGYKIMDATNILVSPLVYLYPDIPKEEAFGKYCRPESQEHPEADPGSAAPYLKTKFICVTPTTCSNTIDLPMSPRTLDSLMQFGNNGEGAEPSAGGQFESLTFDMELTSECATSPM
# Biological target: full length Stat3 (SH2 domain) (Homo sapiens, UniProt P40763)
# Conditions: ref Mandal et al. 2011
substance,measurement,setting,value
βMpCinn-Leu-Pro-Apa [Compound 17],IC50,"affinity for Stat3, Table 1",154 ± 10 nM
same,IC50,"βMpCinn-Leu-Xaa-Apa series, fluorescence polarization",154 ± 10 nM

# Like-named read-outs stand apart in the source and are kept apart here.
